Counter-ions that a name gives are not always drawn.
Target: T1, DPP-IV activity in rat plasma (Rattus norvegicus, UniProt P14740)
T1 construct: from tissue; host or cells: rat plasma
Assay: rat plasma DPP-IV assay
Format: biochemical
Conditions: substrate H-Glycine-Proline-AMC

The chains behind the UniProt entries cited, without tags or fusion partners. Residues count along the entry.
UniProt P14740, 37-767 limits assumed: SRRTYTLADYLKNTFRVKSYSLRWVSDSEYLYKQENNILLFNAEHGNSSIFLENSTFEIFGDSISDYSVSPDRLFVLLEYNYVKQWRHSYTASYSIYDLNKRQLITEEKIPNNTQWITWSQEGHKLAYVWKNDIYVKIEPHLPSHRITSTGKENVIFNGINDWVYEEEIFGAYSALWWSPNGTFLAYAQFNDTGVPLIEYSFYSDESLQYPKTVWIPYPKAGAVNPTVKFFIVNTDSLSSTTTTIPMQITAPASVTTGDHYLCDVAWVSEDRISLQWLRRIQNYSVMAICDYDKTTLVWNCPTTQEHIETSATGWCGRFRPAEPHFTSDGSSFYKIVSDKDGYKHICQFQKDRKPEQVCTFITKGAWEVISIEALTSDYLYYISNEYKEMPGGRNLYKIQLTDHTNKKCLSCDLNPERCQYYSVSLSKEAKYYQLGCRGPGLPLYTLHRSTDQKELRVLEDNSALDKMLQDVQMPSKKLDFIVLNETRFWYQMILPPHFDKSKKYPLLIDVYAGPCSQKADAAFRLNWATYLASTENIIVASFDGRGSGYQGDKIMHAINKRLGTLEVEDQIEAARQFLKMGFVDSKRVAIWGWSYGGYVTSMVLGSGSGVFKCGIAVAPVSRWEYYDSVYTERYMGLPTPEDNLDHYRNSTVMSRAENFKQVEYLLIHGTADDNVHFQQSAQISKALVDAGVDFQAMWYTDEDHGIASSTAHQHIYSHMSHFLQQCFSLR

**Q.** For `O=C(CNCCNc1ccc([N+](=O)[O-])cn1)N1CCCC1` [Ex. 3, 1-[2-[(5-nitropyridin-2-yl)amino]ethylamino]acetylpyrrolidine dihydrochloride], which IC50 is on record?
**A.** 5.2 µM

— patent US6617340B1, “N-(substituted glycyl)-pyrrolidines, pharmaceutical compositions containing them and their use in inhibiting dipeptidyl peptidase-IV” (Novartis AG, priority 1999, dated 2003)
